In ChEMBL document CHEMBL1153475, “Novel indoline-based acyl-CoA: cholesterol acyltransferase inhibitor: Effects of introducing a methanesulfonamide group on physicochemical properties and biological activities” (Bioorg Med Chem, 2009):

Biological target: T1, Acyl-CoA:cholesterol acyltransferase (Oryctolagus cuniculus, UniProt Q95214)
T1 sequence (Q95214 whole entry): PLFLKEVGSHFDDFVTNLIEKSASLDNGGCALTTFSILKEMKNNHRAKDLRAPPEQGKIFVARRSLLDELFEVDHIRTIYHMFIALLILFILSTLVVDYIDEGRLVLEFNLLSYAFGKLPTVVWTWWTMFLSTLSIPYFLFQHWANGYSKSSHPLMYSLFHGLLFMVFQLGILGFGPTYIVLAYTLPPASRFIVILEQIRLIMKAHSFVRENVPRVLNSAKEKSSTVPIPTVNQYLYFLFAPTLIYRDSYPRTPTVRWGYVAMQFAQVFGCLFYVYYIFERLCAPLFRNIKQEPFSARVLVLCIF
Test: Inhibition of ACAT in Japanese White rabbit liver microsomes
Set-up: species or system Microsome

## CCCCCCCCN1CCc2c(C)cc(C)c(NC(=O)C(C)(C)C)c21
  IC50: 0.024 µM
